pKd: −log10 of the molar value.
Legend:
[1] = target: phospholamban PLN1-19 1-19 (Homo sapiens) (UniProt P26678); experiment: ITC
PLN1-19 1-19 = PLN1-19 1-19 (UniProt P26678); details: cited from earlier work

pKd [1]: < 3.00
Substance: PKA-C (from UniProt P05132)
pKd (PLN1-19 1-19): 4.55
